By UniProt entry, the sequences of proteins in these tests, tags left out. Residues count along the entry.
UniProt P04062, 40-536 limits assumed: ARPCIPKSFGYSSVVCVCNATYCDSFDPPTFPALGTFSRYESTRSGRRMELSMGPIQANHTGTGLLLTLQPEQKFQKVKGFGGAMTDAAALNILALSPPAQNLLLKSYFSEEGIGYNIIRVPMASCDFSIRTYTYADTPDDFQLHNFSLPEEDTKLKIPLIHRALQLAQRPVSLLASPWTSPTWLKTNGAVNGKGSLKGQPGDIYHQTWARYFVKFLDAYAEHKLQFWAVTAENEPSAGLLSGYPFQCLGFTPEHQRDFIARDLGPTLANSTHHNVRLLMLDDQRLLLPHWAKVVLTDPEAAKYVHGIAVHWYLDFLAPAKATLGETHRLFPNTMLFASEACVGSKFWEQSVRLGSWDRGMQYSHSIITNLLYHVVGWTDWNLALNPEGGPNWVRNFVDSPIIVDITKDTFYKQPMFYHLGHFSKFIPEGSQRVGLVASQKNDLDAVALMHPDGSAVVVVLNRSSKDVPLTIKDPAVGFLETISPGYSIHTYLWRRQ

According to patent US20240262832A1, “SMALL MOLECULE MODULATORS OF GLUCOCEREBROSIDASE ACTIVITY AND USES THEREOF” (Vanqua Bio, Inc., priority 2021, published 2024):

Molecular target: GCase (Homo sapiens, UniProt P04062)
Test: activation of GCase in a live cell PFB assay in HELA cells
Type: cell-based
Details: read-out: GCase EC50

Structure (SMILES)	EC50 [µM]
FC(F)Cn1ncc2cnc(N3CCC(COc4cnccc4C(F)(F)F)CC3)nc21	< 10
FC(F)Cn1ncc2ncc(N3CCC(COc4cncc(C(F)(F)F)c4)CC3)nc21	< 10
